Literature values as cited in article PMC10343800, “A Novel LSTM-Based Machine Learning Model for Predicting the Activity of Food Protein-Derived Antihypertensive Peptides” (Molecules, 2023).

By UniProt entry, the sequences of proteins in these tests, tags left out. Residues count along the entry.
UniProt P12821, 30-1306 limits assumed: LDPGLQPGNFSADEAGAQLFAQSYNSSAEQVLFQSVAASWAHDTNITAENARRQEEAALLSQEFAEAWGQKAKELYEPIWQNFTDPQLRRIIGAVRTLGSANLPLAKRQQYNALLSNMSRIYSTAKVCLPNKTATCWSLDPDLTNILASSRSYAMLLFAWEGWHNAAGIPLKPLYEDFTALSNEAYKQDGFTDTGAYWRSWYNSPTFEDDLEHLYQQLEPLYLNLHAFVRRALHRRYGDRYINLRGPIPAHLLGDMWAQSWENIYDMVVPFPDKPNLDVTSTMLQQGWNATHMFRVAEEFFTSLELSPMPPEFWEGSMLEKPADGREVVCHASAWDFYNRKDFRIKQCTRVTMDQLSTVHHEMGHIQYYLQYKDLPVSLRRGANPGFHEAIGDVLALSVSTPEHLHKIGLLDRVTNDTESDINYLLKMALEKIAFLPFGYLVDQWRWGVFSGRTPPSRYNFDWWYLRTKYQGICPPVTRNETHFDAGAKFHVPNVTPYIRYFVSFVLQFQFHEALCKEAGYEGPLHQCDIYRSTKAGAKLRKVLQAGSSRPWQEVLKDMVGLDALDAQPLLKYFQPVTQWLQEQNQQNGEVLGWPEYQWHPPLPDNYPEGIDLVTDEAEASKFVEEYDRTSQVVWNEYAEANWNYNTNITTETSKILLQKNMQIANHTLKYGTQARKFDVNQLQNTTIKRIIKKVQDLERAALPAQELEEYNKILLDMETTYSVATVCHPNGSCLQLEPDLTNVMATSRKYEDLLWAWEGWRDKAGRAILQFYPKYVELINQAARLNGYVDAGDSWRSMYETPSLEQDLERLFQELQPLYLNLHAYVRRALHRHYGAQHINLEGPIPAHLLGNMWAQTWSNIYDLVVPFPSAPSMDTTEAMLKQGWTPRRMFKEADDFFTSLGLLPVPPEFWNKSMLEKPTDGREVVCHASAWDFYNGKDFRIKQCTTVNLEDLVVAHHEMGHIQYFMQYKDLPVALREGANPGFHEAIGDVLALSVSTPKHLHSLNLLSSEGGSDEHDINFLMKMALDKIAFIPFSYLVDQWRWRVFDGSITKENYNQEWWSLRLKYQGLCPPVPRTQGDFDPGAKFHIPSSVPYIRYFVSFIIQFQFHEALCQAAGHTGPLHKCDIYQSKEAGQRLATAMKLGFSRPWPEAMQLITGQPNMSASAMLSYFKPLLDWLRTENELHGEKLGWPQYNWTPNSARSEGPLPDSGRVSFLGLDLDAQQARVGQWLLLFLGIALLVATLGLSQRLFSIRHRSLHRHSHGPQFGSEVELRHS

Target: ACE (Homo sapiens, UniProt P12821)
Details: read-out: Reported IC50; in vitro ACE inhibition; cited from earlier work

Question: For `N[C@@H](Cc1ccc(O)cc1)C(=O)N[C@@H](Cc1ccc(O)cc1)C(=O)O`, which IC50 is on record?
Answer: 47.9 µM

Question: For `NCCCC[C@H](N)C(=O)N[C@@H](Cc1c[nH]c2ccccc12)C(=O)O`, which IC50 is on record?
Answer: 10.8 µM

Question: With `NCC(=O)N[C@@H](Cc1ccccc1)C(=O)O` as the compound, how does the IC50 read?
Answer: 278 µM

Question: With `C[C@H](N)C(=O)N[C@@H](Cc1ccc(O)cc1)C(=O)O` as the compound, how does the IC50 read?
Answer: 147 µM

Question: For `NCCCC[C@H](N)C(=O)N[C@@H](Cc1ccccc1)C(=O)O`, which IC50 is on record?
Answer: 28.3 µM

Question: Which IC50 does the source give for `CC[C@H](C)[C@H](N)C(=O)N[C@@H](Cc1ccc(O)cc1)C(=O)O` here?
Answer: 2.7 µM

Question: Which IC50 does the source give for `N[C@@H](Cc1ccccc1)C(=O)N[C@@H](Cc1ccc(O)cc1)C(=O)O` here?
Answer: 3.7 µM

Question: For `CC(C)C[C@H](N)C(=O)N[C@@H](CCCCN)C(=O)N1CCC[C@H]1C(=O)O`, which IC50 is on record?
Answer: 2.93 µM

Question: Which IC50 does the source give for `CC(C)C[C@H](N)C(=O)N[C@H](C(=O)O)[C@@H](C)O` here?
Answer: 1.11 µM
